# CycPeptMPDB entries from one study

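The data file gives no further conditions (lipid, pH, time, direction or concentration), and values from different papers need not be comparable. Other peptides of the study may be missing here. Peptides that the database sets to -10, its floor, are left out.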

PAMPA is the parallel artificial membrane permeability assay, which has no cells and reads passive diffusion. Caco-2 values are permeabilities across monolayers of Caco-2 human intestinal cells. Values are log10 P with P in cm/s, so -5 is more permeable than -7. A value with < or ≤ is an upper limit. Cells with "–" have no entry in this list.

SMILES,PAMPA (log10 cm/s),Caco-2 (log10 cm/s)
CC(C)C[C@H]1C(=O)N2CCC[C@H]2C(=O)N[C@@H](Cc2ccccc2)C(=O)N[C@@H](Cc2ccccc2)C(=O)N[C@@H](Cc2cc3ccccc3[nH]2)C(=O)N[C@@H](C(C)C)C(=O)N1C,–,-5.17
C[C@@H](O)[C@@H]1NC(=O)[C@H](CCCCN)NC(=O)[C@@H](Cc2cc3ccccc3[nH]2)NC(=O)[C@H](Cc2ccccc2)NC(=O)[C@@H]2CCCN2C(=O)[C@H](Cc2ccccc2)NC1=O,-7.10,-6.03
CC[C@H](C)[C@@H]1NC(=O)[C@H](Cc2cc3ccccc3[nH]2)NC(=O)[C@H]2CCCN2C(=O)[C@H]([C@@H](C)CC)NC(=O)[C@H]([C@@H](C)CC)NC(=O)[C@@H](CC(C)C)NC1=O,-6.39,-5.51
CC(C)C[C@H]1C(=O)N2CCC[C@H]2C(=O)N[C@@H](Cc2ccc(O)cc2)C(=O)N(C)[C@H](C)C(=O)N(C)CC(=O)N[C@@H](Cc2ccccc2)C(=O)N1C,–,< -6.85
CC(C)C[C@@H]1NC(=O)[C@H](CC(C)C)N(C)C(=O)[C@@H](CC(C)C)N(C)C(=O)[C@H](CC(C)C)N(C)C(=O)[C@H](Cc2ccc(O)cc2)N(C)C(=O)[C@H]2CCCN2C1=O,-5.82,-4.80
CC(C)C[C@@H]1NC(=O)[C@@H](Cc2ccccc2)NC(=O)CN(C)C(=O)[C@@H](C)N(C)C(=O)[C@H](Cc2ccc(O)cc2)NC(=O)[C@@H]2CCCN2C1=O,–,< -6.85
C[C@@H]1NC(=O)[C@H](C)N(C)C(=O)[C@H](C)NC(=O)[C@H](C)N(C)C(=O)[C@H](C)NC(=O)[C@@H](C)NC1=O,–,< -6.85
CC(C)C[C@@H]1NC(=O)[C@H](Cc2cc3ccccc3[nH]2)NC(=O)[C@@H]2CCCN2C(=O)[C@@H](CC(C)C)NC(=O)[C@@H](CC(C)C)NC(=O)[C@@H](CC(C)C)NC1=O,-5.48,-5.02
N=C(N)NCCC[C@@H]1NC(=O)[C@H](Cc2cc3ccccc3[nH]2)NC(=O)[C@H]2CCCN2C(=O)[C@H](CCCCN)NC(=O)[C@H](CCCNC(=N)N)NC(=O)[C@@H](CCCNC(=N)N)NC1=O,–,< -6.85
CC(C)C[C@@H]1NC(=O)[C@@H](CC(C)C)NC(=O)[C@@H](CC(C)C)NC(=O)[C@H](Cc2cc3ccccc3[nH]2)NC(=O)[C@@H]2CCCN2C(=O)[C@@H](CC(C)C)NC1=O,-5.60,-4.76
CC(C)C[C@@H]1C(=O)N[C@H](CC(C)C)C(=O)N[C@H](CC(C)C)C(=O)N2CCC[C@H]2C(=O)N[C@@H](Cc2ccc(O)cc2)C(=O)N(C)[C@@H](CC(C)C)C(=O)N1C,–,-4.66
CC(C)C[C@@H]1NC(=O)[C@H](Cc2cc3ccccc3[nH]2)NC(=O)[C@H]2CCCN2C(=O)[C@H](CC(C)C)NC(=O)[C@H](CC(C)C)NC(=O)[C@@H](CC(C)C)NC1=O,-5.78,-5.23
CC(C)C[C@@H]1NC(=O)[C@H](C(C)C)NC(=O)[C@H](Cc2cc3ccccc3[nH]2)N(C)C(=O)[C@H](Cc2ccccc2)NC(=O)[C@H](Cc2ccccc2)NC(=O)[C@@H]2CCCN2C1=O,–,-5.77
CC(C)C[C@@H]1NC(=O)[C@@H](CC(C)C)NC(=O)[C@@H](CC(C)C)NC(=O)[C@@H](CC(C)C)NC(=O)[C@H](Cc2cc3ccccc3[nH]2)NC(=O)[C@@H]2CCCN2C1=O,-6.55,-6.44
CC(C)C[C@@H]1C(=O)N2CCC[C@H]2C(=O)N[C@@H](Cc2ccc(O)cc2)C(=O)N(C)[C@H](C)C(=O)N(C)CC(=O)N[C@@H](Cc2ccccc2)C(=O)N1C,-7.15,-6.20
C[C@@H](O)[C@@H]1NC(=O)[C@@H](CCCCN)NC(=O)[C@@H](Cc2cc3ccccc3[nH]2)NC(=O)[C@H](Cc2ccccc2)NC(=O)[C@@H]2CCCN2C(=O)[C@@H](Cc2ccccc2)NC1=O,-7.05,-6.70
CC(C)C[C@@H]1NC(=O)[C@H](Cc2cc3ccccc3[nH]2)NC(=O)[C@@H]2CCCN2C(=O)[C@H]2CCCN2C(=O)[C@@H](CC(C)C)NC(=O)[C@H](CC(C)C)NC1=O,-6.72,-6.68
CC(C)C[C@@H]1NC(=O)[C@H](C(C)C)NC(=O)[C@H](Cc2cc3ccccc3[nH]2)NC(=O)[C@H](Cc2ccccc2)NC(=O)[C@H](Cc2ccccc2)NC(=O)[C@@H]2CCCN2C1=O,-6.43,-6.62

Extract of 2 entries:

| SMILES | PAMPA (log10 cm/s) | Caco-2 (log10 cm/s) |
|---|---|---|
| CC(C)C[C@@H]1NC(=O)[C@H](CC(C)C)N(C)C(=O)[C@@H](CC(C)C)N(C)C(=O)[C@H](CC(C)C)N(C)C(=O)[C@H](Cc2ccc(O)cc2)N(C)C(=O)[C@H]2CCCN2C1=O | -5.82 | -4.80 |
| CC(C)C[C@H]1C(=O)N2CCC[C@H]2C(=O)N[C@@H](Cc2ccc(O)cc2)C(=O)N(C)[C@H](C)C(=O)N(C)CC(=O)N[C@@H](Cc2ccccc2)C(=O)N1C | – | < -6.85 |

Source: CycPeptMPDB (Li et al. 2023), which took these values from Wang et al. 2015, doi:10.1016/j.ejmech.2015.04.049.